## Yeast mating assay 2: variants of the scFv Ab-95

Target peptide (SARS-CoV-2 spike, HR2 region): PDVDLGDISGINAS

Each scFv is VH, three GGGGS repeats, VL, as in the parent Ab-95, and differs from it in the CDRs of the light chain only.
VH: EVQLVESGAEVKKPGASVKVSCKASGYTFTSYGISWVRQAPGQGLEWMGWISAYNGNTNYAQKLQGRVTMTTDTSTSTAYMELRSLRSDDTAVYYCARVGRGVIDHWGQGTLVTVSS
VL: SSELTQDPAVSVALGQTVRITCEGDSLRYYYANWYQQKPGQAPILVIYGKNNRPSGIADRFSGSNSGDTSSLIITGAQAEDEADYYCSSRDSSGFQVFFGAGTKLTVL

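Phage display of a naive human antibody library on the peptide gave the parent. AAYL52 was designed without a model: most single CDR substitutions and a random sample of double and triple ones. The scFvs were displayed on barcoded MATa yeast, the peptide on MATalpha yeast. Pairs that bind mate more often; barcode pairs of the diploids are counted by sequencing. The ratio of observed to expected reads was calibrated, replicate by replicate, on BCL2-family standards whose Kd was known from biolayer interferometry. There are three technical replicates.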

The parent's light chain CDRs are EGDSLRYYYAN, GKNNRPS, SSRDSSGFQVF; each variant's own CDRs replace them letter for letter.
All variants listed here change P54 of the VL, counted from its first residue.
Values are apparent Kd, the geometric mean of the replicates that gave a signal; lower means stronger binding.
A pair that was not seen in any replicate is written "not detected"; this usually means weak binding, but a binder can also be missed.
Parent in this assay: reference entry 200 nM, copy in this library 180 nM.
As a blank, each scFv also met three strains without target: over library AAYL52, 28% of these pairings were detected, typically at 8.2 µM and seldom below 800 nM.

CDR-L1	CDR-L2	CDR-L3	Kd	detected
EGDSLDYYYAN	GGNNRLS	SSRDSSGFQVF	880 nM	3/3
EGDSLRHYYAN	QKNNRIS	SSRDSSGFQVF	10 µM	2/3
PGDSLRYYYAN	GKNNRKS	SSRDSSDFQVF	44 µM	2/3
EGDVLRYYYAN	GWNNRRS	SSRDSSGFQVF	20 µM	1/3
EGDSLRYYYAN	GKNHRII	SSRDSSGFQVF	1.9 µM	1/3
EGDSLMYYYAN	GENNRSS	SSRDSSGFQVF	150 nM	3/3
ERDSLRYVYAN	GKNNRHS	SSRDSSGFQVF	2.4 µM	1/3
EGDSLRYYYAN	GKNNWHS	SSRDSNGFQVF	not detected	0/3
EGDSLRYYYAN	GKNNRYE	SSRDSSGCQVF	15 µM	2/3
EGDSLRYYYAN	YKNNRNR	SSRDSSGFQVF	700 nM	2/3
EGDSLRYYYAN	GKNLRFS	SSRASSGFQVF	610 nM	2/3
EGDSLRYTYAN	GKNNRHS	SSRDSSGMQVF	180 nM	3/3
EGDSERYYYAN	GKDNRIS	SSRDSSGFQVF	17 µM	2/3
EGDSLRYYYAN	GKNNRVS	SVRDSGGFQVF	15 µM	2/3
EGDSLRYYYAN	GKNNRNS	SSRDSNGFGVF	180 nM	3/3
EGDYLRYYYAP	GKNNRWS	SSRDSSGFQVF	4.8 µM	2/3
EGDSLIYYYAN	GKNNRQS	SSRDSSGFQVF	5.0 µM	2/3
EGDSLRYYYSN	LKNNRNS	SSRDSSGFQVF	82 µM	2/3
EGDSLRYYYAN	GKNERKS	SSRDSSGFWVF	720 nM	3/3
PGDSLRYYYAN	GKNNRHS	SSRDSSGFFVF	20 µM	2/3
EYDSLRYYYAS	GKNNRIS	SSRDSSGFQVF	47 µM	1/3
EGDSLRYYYAN	GKVNRWS	SSRDSSGFQVF	21 µM	3/3
MGDSLRYYYAN	GKNNRNS	SSRDGSGFQVF	290 nM	3/3
EGDSIRYYYAN	GKNNRAS	SSRDSSLFQVF	1.5 µM	3/3
EGDSLRYYYFN	GKNNRVS	SSRDSIGFQVF	8.4 µM	3/3
EGDSMRYYYAN	GINNRMS	SSRDSSGFQVF	36 µM	2/3
EGDSLRYYYAN	GKNGRIS	SPRDSSGFQVF	13 µM	2/3
EGDSLIYYYAN	GKNNRGS	SSRDISGFQVF	12 µM	3/3
EGDSLRYYYAN	GRNNRCS	SSRDSMGFQVF	39 µM	3/3
EQDSLRYYYAN	GKNNRWS	SSRDSSPFQVF	9.7 µM	1/3
FGDSLRYYVAN	GKNNRCS	SSRDSSGFQVF	260 nM	1/3
EGDSLRYKYAN	GKNRRTS	SSRDSSGFQVF	790 nM	3/3
ERDSLRYYYAN	GKNNRAS	SSRDYSGFQVF	350 nM	3/3
EGDSLRYYYYL	GKNNRIS	SSRDSSGFQVF	not detected	0/3
EGDSLRYYYAN	GKCNRSS	SSADSSGFQVF	not detected	0/3
EGDSLRYYYAN	GKNNRLS	SSNDSSGFPVF	650 µM	1/3
EMDSLRYYYAN	GKNNRTS	SSRDSSGFQVR	4.6 µM	2/3
EMDSLRYYVAN	GKNNRCS	SSRDSSGFQVF	9.2 µM	2/3
EGDSLRYVYAN	GKNNRAS	SSRDSSYFQVF	71 nM	3/3
EGDQLRYYYAN	GKNNRAS	SSRDNSGFQVF	35 µM	2/3
EGDSLRYYYAN	GKNNRHS	SSINSSGFQVF	not detected	0/3
EGDGLRYYYAN	GKNNRCS	SSRDSIGFQVF	1.6 µM	3/3
EGDSLRYYYAN	GKNNRKS	SSRDESRFQVF	not detected	0/3
EGDSLRYYYAN	GKNNRKS	SSRDGQGFQVF	160 µM	1/3
EGDSLRYYYAN	GKNNRFS	SSRDFSGFQVE	1.1 µM	2/3
EGDSLRVYYAN	GKNNRMS	SVRDSSGFQVF	14 µM	2/3
EGDSLRYYYAN	VKNNEMS	SSRDSSGFQVF	7.5 µM	2/3
EGDSLRYYYAH	GKNNRVS	SSMDSSGFQVF	22 µM	2/3
EGDSLRYYYAN	GKNNRFS	SSRDSMGFQVF	4.9 µM	2/3
EKDYLRYYYAN	GKNNRGS	SSRDSSGFQVF	3.8 µM	2/3
EGDSLRYYYAN	GKNNRGS	SSRDSSGFQVI	2.7 µM	3/3
EGDSLRYYYAN	GKNNRHS	SSRDSSGFQVF	2.8 µM	3/3
EGDSLEYYYAL	GKNNRVS	SSRDSSGFQVF	2.7 µM	1/3
EGWSLRYYYAN	GKNNTGS	SSRDSSGFQVF	13 µM	2/3
EGDSLRYYYFD	GKNNRFS	SSRDSSGFQVF	38 µM	2/3
EGYELRYYYAN	GKNNRQS	SSRDSSGFQVF	not detected	0/3
GGDSDRYYYAN	GKNNRDS	SSRDSSGFQVF	not detected	0/3
EGDSHRYYYAN	GKNNRSS	SSRDSSGAQVF	15 µM	2/3
EGDSLRYYYAN	GKQNRDS	SSRDSFGFQVF	6.6 µM	1/3
EGDSLRYYYAN	GTNNRMS	SPRDSSGFQVF	330 µM	1/3
EGDSLRYYRAN	GKNNRQS	SSRDKSGFQVF	260 nM	3/3
TGDSLRYYYAN	GKYNRHS	SSRDSSGFQVF	3.5 µM	2/3
EGDSLRYYYAN	GKNNRES	SNTDSSGFQVF	not detected	0/3
EGDSLRYYYAN	GKNNRLS	SSRNTSGFQVF	not detected	0/3
EGDSTRYYYAY	GKNNRLS	SSRDSSGFQVF	21 µM	1/3
EGDSLRYAYAN	GKNNRAS	SSRDSDGFQVF	68 nM	3/3
EGDSLRLYYAN	GKNHRWS	SSRDSSGFQVF	5.2 µM	3/3
EGDSVREYYAN	GKNNRLS	SSRDSSGFQVF	7.0 µM	2/3
EGDQLRYYYAN	GKNNYHS	SSRDSSGFQVF	53 µM	2/3
EGDSLRYYYAN	GKNNRKS	SSRDWSIFQVF	660 nM	2/3
EGASLRYYYAN	MKNNRES	SSRDSSGFQVF	not detected	0/3
EGDSLRYYYAN	GKNNRDS	SSRDSRGFQVQ	57 µM	1/3
EGDSLRYYYAN	GKNNRRS	SSRDMSGFQVF	2.3 µM	3/3
EGDSLRYYYAN	GKNNRES	NSRDSSGFQQF	not detected	0/3
EGDSLRYYYAN	GKQQRMS	SSRDSSGFQVF	160 nM	3/3
EGDHLRYYYAN	GKNGRVS	SSRDSSGFQVF	2.0 µM	3/3
EGDSLRYYVAN	GFNNRGS	SSRDSSGFQVF	7.4 µM	3/3

The 13 strongest on average among those seen in every replicate, once more:

CDR-L1,CDR-L2,CDR-L3,Kd,detected
EGDSLRYAYAN,GKNNRAS,SSRDSDGFQVF,68 nM,3/3
EGDSLRYVYAN,GKNNRAS,SSRDSSYFQVF,71 nM,3/3
EGDSLMYYYAN,GENNRSS,SSRDSSGFQVF,150 nM,3/3
EGDSLRYYYAN,GKQQRMS,SSRDSSGFQVF,160 nM,3/3
EGDSLRYTYAN,GKNNRHS,SSRDSSGMQVF,180 nM,3/3
EGDSLRYYYAN,GKNNRNS,SSRDSNGFGVF,180 nM,3/3
EGDSLRYYRAN,GKNNRQS,SSRDKSGFQVF,260 nM,3/3
MGDSLRYYYAN,GKNNRNS,SSRDGSGFQVF,290 nM,3/3
ERDSLRYYYAN,GKNNRAS,SSRDYSGFQVF,350 nM,3/3
EGDSLRYYYAN,GKNERKS,SSRDSSGFWVF,720 nM,3/3
EGDSLRYKYAN,GKNRRTS,SSRDSSGFQVF,790 nM,3/3
EGDSLDYYYAN,GGNNRLS,SSRDSSGFQVF,880 nM,3/3
EGDSIRYYYAN,GKNNRAS,SSRDSSLFQVF,1.5 µM,3/3

From the AlphaSeq antibody data of Engelhart et al. 2022 (doi:10.1038/s41597-022-01779-4), copy in the FLAb collection.